Experimental data taken from ChEMBL document CHEMBL4028801, “A multifactorial approach to hepatobiliary transporter assessment enables improved therapeutic compound development” (Toxicol Sci, 2013).

Assay: Ratio of drug concentration at steady state in human at 400 to 600 mg, po QD after 24 hrs to IC50 for human BSEP overexpressed in Sf9 insect cells
Format: ADME, organism-based
Conditions: in vivo

Cc1ccc(NC(=O)c2ccc(CN3CCN(C)CC3)cc2)cc1Nc1nccc(-c2cccnc2)n1 [IMATINIB]
Ratio: 0.176
